Like-named read-outs stand apart in the source and are kept apart here.
Tested on: Staphylococcus aureus
Experiment: Agar-dilution MIC
Assay type: cell-based
[1] = Table 17, 24 hours, Staphylococcus aureus S13E

| Substance | MIC [µg/mL] | MIC [1] [µg/mL] | MIC (Table 17, 24 hours, Staphylococcus aureus V41) [µg/mL] | MIC (Table 17, 24 hours, Staphylococcus aureus 3055) [µg/mL] |
| --- | --- | --- | --- | --- |
| A41030 factor C | 0.5 | 0.5 | 0.5 |  |
| A41030 factor G | 1 | 1 |  | 0.5 |

Source: patent US4559323A, “A41030 Antibiotics” (Eli Lilly and Company, priority 1984, dated 1985)
